pIC50: −log10 of the molar value. Read-outs that look alike come from different tables or passages of the source.
Assays:
HLA-A1 (A*0101) = HLA-A1 (A*0101) (Homo sapiens, UniProt P04439, A114D/A174V/A182V/D101N/D185E/E176A/E190D/L180R/Q94H/R68K/S129P/T187R/V100A/V91M/W191G); conditions: read-out: Binding affinity A*0101
A*3002 = A*3002 (Homo sapiens, UniProt P04439, D101N/D140H/D185E/E176R/F33S/G80R/H175R/K168Q/Q94H/R138E/R41S/V100E); test: biochemical; type: binding; conditions: read-out: Binding affinity A*3002
B*5101 = B*5101 (Homo sapiens, UniProt P01889, A329T/A93T/A95T/C349S/D138N/D201E/D98Y/E187L/E204Q/E69T/G107R/I218V/K202T/L105A/L119W/N104I/Q94N/R106L/R155S/R180L/S101N/S121T/S35A/S48A/V306I/V36M/Y195H/Y91F); test: HLA-B*5101 peptide binding (B7-like supertype)
A31 = A31 (Homo sapiens, UniProt P04439, A270S/D185E/E176V/E277Q/F33T/G231S/G80R/H175R/I121M/I218V/I322F/K168Q/L300P/L318F/M331R/P217A/Q94H/R138Q/T323A/T345S/T97I/V358M); test: biochemical
DRB1*0405 = DRB1*0405 (Homo sapiens, UniProt P01903+P01911, A100R/A169T/D86S/F76Y/I96L/K127E/L162R/M171V/N62H/P40V/Q125Y/R42H/S133A/S149N/S66Y/V115G/V209L/W38E); test: biochemical; type: binding; conditions: read-out: DRB1*0405
DR1 (DRB1*0101) [1] = target: T1, DR1 (DRB1*0101) (Homo sapiens, UniProt P01903+P01911, A100R/D57E/F55L/F60I/F76Y/I96L/L162R/M171V/P40L/Q125E/R42F/V115G/Y59C); conditions: read-out: DRB1*0101
DRB1*1101 = DRB1*1101 (Homo sapiens, UniProt P01903+P01911, A100R/A169T/A87E/I96F/K41T/L162R/M171V/P40S/Q125H/Q178H/Q39Y/Q99D/R42S/S66Y/T262R/V115G/W38E); conditions: read-out: DRB1*1101
DRB1*0901 = DRB1*0901 (Homo sapiens, UniProt P01903+P01911, A100R/A103E/D57H/D86V/F55Y/F60I/F76Y/I96F/K127E/L162R/M171V/P40D/Q125H/Q99R/R33Q/R42F/S133A/S66N/T210M/V115G/W38K/Y107V/Y59G/Y89S); conditions: read-out: DRB1*0901
DR7 (DRB1*0701) = DR7 (DRB1*0701) (Homo sapiens, UniProt P01903+P01911, A100R/A102G/A103Q/D57E/D86V/E43K/F76Y/K127E/L162R/M171V/P40G/Q125H/Q99D/R33Q/R42Y/R54Q/S133A/S66F/T210M/V115G/Y107V/Y59L/Y89S); conditions: read-out: DRB1*0701
DR1 (DRB1*0101) [2] = target: T1, DR1 (DRB1*0101); test: biochemical
DRB1*0301 = DRB1*0301 (Homo sapiens, UniProt P01903+P01911, A100K/A102G/A103R/A169T/F55Y/I96L/K41T/L162R/M171V/P40S/Q125H/Q178H/Q39Y/R42S/S66N/T106N/T262R/W38E/Y61H); test: biochemical; type: binding
B*4501 = B*4501 (Homo sapiens, UniProt P01889, A329T/A65T/A93T/A95T/C349S/D138N/D201E/D98Y/E176V/E187L/E204Q/E69K/H137Y/K202T/L119W/N87E/Q56L/Q94N/R155S/R180D/S121R/S35A/S48T/V127L/V306I/V36M/W191S/Y140L/Y33H/Y91S); test: biochemical
A*0203 = A*0203 (Homo sapiens, UniProt P04439, A173T/D140Y/D185E/D98H/E277Q/G131W/G231S/I119V/I121R/I166T/I218V/L180W/L300P/L318F/N151K/N90K/P208A/P217A/Q86G/Q94H/R138H/R169H/T345S); test: biochemical; type: binding
A*2902 = A*2902 (Homo sapiens, UniProt P04439, A270S/D101N/D185E/E176V/E277Q/E87Q/F33T/G231S/H175R/I121M/I218V/I322F/K168Q/L300P/L318F/M331R/P208A/P217A/Q86L/T323A/T345S/V100A/V358M); test: biochemical; type: binding
A2.1 HLA molecules = A2.1 HLA molecules (Homo sapiens, UniProt P04439, D140Y/D185E/D98H/E176V/E277Q/G131W/G231S/I119V/I121R/I166T/I218V/L300P/L318F/N151K/N90K/P208A/P217A/Q86G/Q94H/R138H/R169H/T345S)

Compound: CC(C)C[C@H](NC(=O)[C@H](CC(=O)O)NC(=O)[C@H](CCCCN)NC(=O)[C@H](Cc1ccccc1)NC(=O)[C@H](C)N)C(=O)N[C@@H](Cc1ccccc1)C(=O)N[C@H](C(=O)N[C@H](C(=O)N[C@@H](Cc1ccc(O)cc1)C(=O)O)C(C)C)C(C)C
- pIC50 (HLA-A1 (A*0101)): < 4.70
- pIC50 (A*3002): 7.43

Compound: CC(C)C[C@H](NC(=O)[C@H](CO)NC(=O)[C@H](Cc1ccccc1)NC(=O)[C@H](C)NC(=O)[C@H](CC(C)C)NC(=O)[C@H](CS)NC(=O)[C@H](Cc1c[nH]cn1)NC(=O)[C@@H]1CCCN1C(=O)[C@@H](N)Cc1ccccc1)C(=O)O
- pIC50 (B*5101): 8.35

Compound: CC(C)C[C@H](NC(=O)[C@H](C)NC(=O)[C@H](Cc1ccccc1)NC(=O)[C@H](C)NC(=O)[C@H](CC(C)C)NC(=O)[C@H](CS)NC(=O)[C@H](Cc1c[nH]cn1)NC(=O)[C@@H]1CCCN1C(=O)[C@@H](N)Cc1ccccc1)C(=O)O [FPHCLAFAL]
- pIC50 (B*5101): 7.55

Compound: CC(C)C[C@H](NC(=O)[C@H](C)NC(=O)CNC(=O)[C@H](C)NC(=O)[C@@H](NC(=O)CN)C(C)C)C(=O)N[C@H](C(=O)N[C@@H](C)C(=O)N[C@@H](Cc1ccccc1)C(=O)N[C@@H](CCCCN)C(=O)O)C(C)C [HCV lorf 1858-1867]
- pIC50 (A31): 5.48

Compound: CC[C@H](C)[C@H](NC(=O)[C@H](CS)NC(=O)[C@H](CC(=O)O)NC(=O)[C@H](CCCNC(=N)N)NC(=O)[C@H](Cc1ccc(O)cc1)NC(=O)[C@@H](NC(=O)[C@@H](NC(=O)[C@H](CS)NC(=O)[C@@H](N)CC(C)C)[C@@H](C)CC)C(C)C)C(=O)N[C@@H](C)C(=O)N[C@@H](Cc1ccc(O)cc1)C(=O)N[C@@H](C)C(=O)N[C@@H](C)C(=O)N[C@@H](CS)C(=O)N[C@@H](Cc1c[nH]cn1)C(=O)O [Peptide 85.0123]
- pIC50 (DRB1*0405): 6.20
- pIC50 (DR1 (DRB1*0101) [1]): 6.00
- pIC50 (DRB1*1101): 5.00
- pIC50 (DRB1*0901): 4.97
- pIC50 (DR7 (DRB1*0701)): 4.40

Compound: CSCC[C@H](NC(=O)[C@@H]1CCCN1C(=O)[C@@H]1CCCN1C(=O)[C@@H](NC(=O)[C@@H](NC(=O)[C@H](CCC(N)=O)NC(=O)[C@H](Cc1c[nH]cn1)NC(=O)CN)C(C)C)C(C)C)C(=O)N[C@@H](C)C(=O)N[C@H](C(=O)N[C@@H](CO)C(=O)N[C@@H](CCCCN)C(=O)N[C@@H](C)C(=O)N[C@@H](CCCCN)C(=O)N[C@@H](C)C(=O)O)C(C)C [Peptide 90.0011]
- pIC50 (DR1 (DRB1*0101) [2]): 6.78

Compound: CC[C@H](C)[C@H](NC(=O)[C@H](C)NC(=O)[C@H](CS)NC(=O)[C@H](CCC(=O)O)NC(=O)[C@H](CCSC)NC(=O)[C@H](CCCNC(=N)N)NC(=O)[C@@H](NC(=O)[C@@H](N)CC(C)C)[C@@H](C)CC)C(=O)N[C@@H](CCSC)C(=O)N[C@@H](Cc1ccc(O)cc1)C(=O)N[C@H](C(=O)N[C@@H](C)C(=O)N[C@@H](CCCNC(=N)N)C(=O)N[C@@H](CCC(N)=O)C(=O)N[C@@H](CCSC)C(=O)O)[C@@H](C)O [Peptide 90.0022]
- pIC50 (DRB1*0301): 6.78

Compound: CC(C)C[C@H](NC(=O)[C@H](Cc1ccc(O)cc1)NC(=O)[C@@H](NC(=O)[C@@H](NC(=O)[C@H](CC(N)=O)NC(=O)[C@H](CCC(N)=O)NC(=O)[C@H](C)NC(=O)[C@H](CCC(=O)O)NC(=O)[C@@H]1CCCN1)[C@@H](C)O)[C@@H](C)O)C(=O)N[C@@H](Cc1c[nH]c2ccccc12)C(=O)N[C@@H](Cc1c[nH]c2ccccc12)C(=O)N[C@H](C(=O)O)C(C)C [Peptide 9002.0337]
- pIC50 (B*4501): 8.48

Compound: CC[C@H](C)[C@H](NC(=O)[C@@H](NC(=O)[C@H](Cc1c[nH]cn1)NC(=O)[C@H](CC(C)C)NC(=O)[C@H](CC(C)C)NC(=O)[C@@H](N)Cc1ccc(O)cc1)C(C)C)C(=O)N[C@@H](CCCCN)C(=O)N[C@@H](CO)C(=O)N[C@@H](CC(=O)O)C(=O)N[C@@H](CC(C)C)C(=O)O [Peptide 9013.0152]
- pIC50 (A*0203): 6.45

Compound: CC(C)C[C@H](NC(=O)[C@H](CC(N)=O)NC(=O)[C@H](CO)NC(=O)[C@@H](NC(=O)[C@H](Cc1ccccc1)NC(=O)[C@H](CS)NC(=O)[C@H](C)NC(=O)[C@@H](N)Cc1ccc(O)cc1)C(C)C)C(=O)N[C@@H](C)C(=O)N[C@H](C(=O)O)C(C)C [Peptide 9013.0248]
- pIC50 (A*0203): 6.71

Compound: CC[C@H](C)[C@H](NC(=O)[C@H](CC(C)C)NC(=O)[C@H](CO)NC(=O)CNC(=O)[C@H](Cc1ccccc1)NC(=O)[C@@H](NC(=O)[C@@H](N)CCCCN)[C@@H](C)CC)C(=O)N[C@@H](Cc1ccccc1)C(=O)N[C@@H](CC(C)C)C(=O)N1CCC[C@H]1C(=O)N[C@@H](CCC(=O)O)C(=O)N[C@@H](CO)C(=O)N[C@@H](Cc1ccccc1)C(=O)N[C@@H](CC(=O)O)C(=O)NCC(=O)N[C@@H](CC(=O)O)C(=O)N1CCC[C@H]1C(=O)N[C@@H](C)C(=O)O [Peptide 9014.0240]
- pIC50 (DR1 (DRB1*0101) [2]): 6.14

Compound: CC[C@H](C)[C@H](NC(=O)[C@H](CC(C)C)NC(=O)[C@H](CCC(N)=O)NC(=O)[C@H](CC(=O)O)NC(=O)[C@H](C)NC(=O)[C@@H](NC(=O)CN)[C@@H](C)O)C(=O)N[C@@H](Cc1c[nH]cn1)C(=O)N[C@@H](CC(C)C)C(=O)N[C@@H](Cc1ccc(O)cc1)C(=O)O [Peptide 9018.0023]
- pIC50 (A*2902): 6.70

Compound: KLSGLGLNAV [Peptide F124.14]
- A*0201 (A2.1 HLA molecules): 0.0170

From patent US9340577B2, “HLA binding motifs and peptides and their uses” (priority 1992, dated 2016)
